T1: Flag-human LMBR1L-V5 (N-terminus FLAG-tagged and C-terminus V5-tagged recombinant human LMBR1L) (human, UniProt Q6UX01 1-489)
T1 construct: Probe of the ProtoArray Human Protein Microarray V5.1, purified from HEK293T cells on anti-FLAG M2 gel and used at 50 ug/ml
T1 sequence: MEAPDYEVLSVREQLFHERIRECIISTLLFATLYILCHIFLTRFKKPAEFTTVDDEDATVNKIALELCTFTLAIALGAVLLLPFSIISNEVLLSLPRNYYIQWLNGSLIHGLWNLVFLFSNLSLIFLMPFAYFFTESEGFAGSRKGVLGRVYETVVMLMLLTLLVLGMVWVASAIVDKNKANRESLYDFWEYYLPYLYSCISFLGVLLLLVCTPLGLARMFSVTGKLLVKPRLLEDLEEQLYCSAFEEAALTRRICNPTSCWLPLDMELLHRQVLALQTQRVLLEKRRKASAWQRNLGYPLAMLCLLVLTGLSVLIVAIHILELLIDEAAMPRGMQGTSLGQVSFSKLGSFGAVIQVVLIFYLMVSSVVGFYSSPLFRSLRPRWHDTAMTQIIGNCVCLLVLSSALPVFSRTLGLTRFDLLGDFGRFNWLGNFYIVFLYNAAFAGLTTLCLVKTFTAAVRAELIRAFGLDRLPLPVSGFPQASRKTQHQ

T2: Flag tagged-human Lmbr1l (limb region 1 like, LMBR1L) (human, UniProt Q6UX01 1-489)
T2 construct: It carries a Flag tag; also called h-LMBR1L; LIMR
T2 sequence: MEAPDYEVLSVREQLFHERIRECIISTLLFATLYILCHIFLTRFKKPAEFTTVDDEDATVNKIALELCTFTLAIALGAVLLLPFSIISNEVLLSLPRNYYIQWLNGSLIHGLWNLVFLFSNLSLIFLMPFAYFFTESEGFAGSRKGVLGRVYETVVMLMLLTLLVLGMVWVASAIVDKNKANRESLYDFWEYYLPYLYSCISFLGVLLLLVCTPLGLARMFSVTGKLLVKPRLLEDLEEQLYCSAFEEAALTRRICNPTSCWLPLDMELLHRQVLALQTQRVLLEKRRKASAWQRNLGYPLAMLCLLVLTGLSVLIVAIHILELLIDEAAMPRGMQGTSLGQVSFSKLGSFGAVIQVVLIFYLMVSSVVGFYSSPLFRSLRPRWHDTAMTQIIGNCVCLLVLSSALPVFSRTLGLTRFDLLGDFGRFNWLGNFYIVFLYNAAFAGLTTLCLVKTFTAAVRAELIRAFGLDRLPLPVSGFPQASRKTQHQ


Experiments:
[1] = molecular target: T1, Flag-human LMBR1L-V5 (N-terminus …); experiment: ProtoArray human protein microarray probed with Flag-human LMBR1L-V5
Excerpt: FIGS. 4A-4C. LMBR1L negatively regulates Wnt signaling. (A, B) LMBR1L physically interacts with components of the Wnt signaling pathway. […] A construct expressing both N-terminus FLAG-tagged and C-terminus V5-tagged human LMBR1L was transfected into HEK293T cells and the recombinant protein was purified using anti-FLAG M2 agarose beads. Binding between recombinant human LMBR1L and purified human proteins printed in duplicate on the microarray slide was probed with anti-V5-Alexa 647 antibody. (B) HEK293T cells were transfected with either FLAG-tagged GSK-3β, β-catenin, ZNRF3, RNF43, FZD6, LRP6, DVL2, or empty vector (EV) and HA-tagged LMBR1L. Lysates were subsequently immunoprecipitated using anti-FLAG M2 agarose and immunoblotted with antibodies against HA or FLAG. (C) Immunoblot analysis of β-catenin, phospho-β-catenin, AXIN1, DVL2, GSK-3α/β, phospho-GSK-3β, CK1, β-TrCP, c-Myc, p53, p21, caspase-3, cleaved caspase-3, caspase-9, cleaved caspase-9, and GAPDH in TCLs of pooled CD8⁺ T cells from Lmbr1l^{-/-} or wild-type littermates. Data are representative of three-to-five independent experiments.
The ProtoArray Human Protein Microarray V5.1 (Invitrogen) was used to identify human Lmbr1l-interacting proteins according to manufacturer's instructions. […]

[2] = molecular target: T2, Flag tagged-human Lmbr1l (limb region 1 …); experiment: anti-FLAG co-IP from HEK293T lysate + LC-MS/MS, vs empty vector
Description: We sought to understand the immune function of LMBRL1 by identifying LMBR1L-interacting proteins using co-immunoprecipitation (co-IP) combined with mass spectrometry (MS) analysis. Among the 1,623 candidate proteins identified as putative LMBR1L interactors (Dataset S1), 25 proteins were >50-fold more abundant in the LMBR1L co-IP product relative to empty vector control (Table 1).
Co-immunoprecipitation and mass spectrometry were performed to identify Lmbr1l-interacting proteins as described below. Transfection was performed in HEK293T cells (ATCC) using Lipofectamine 2000 reagent (Life technologies) with plasmid encoding Flag tagged-human Lmbr1l or empty vector control. Forty-eight hours after transfection, cells were harvested in NP-40 lysis buffer for 45 min at 4° C. […] The proteins were eluted with SDS sample buffer and heated at 95° C. for 10 min. Lysates were loaded onto 12% (wt/vol) SDS-PAGE gel and run 1 cm into the separation gel. The gel was stained with Coomassie blue (Thermo Fisher) and whole stained lanes were subjected to mass spectrometry analysis (LCMS/MS) as described previously (33).

Row | binding result [1] | Ratio h-LMBR1L/h-vector [2] [ratio] | Binder
1 | binds |  | GSK-3β (purified human protein printed on the ProtoArray Human Protein Microarray V5.1) (enzyme, UniProt P49841 1-420, looked up) MSGRPRTTSFAESCKPVQQPSAFGSMKVSRDKDGSKVTTVVATPGQGPDRPQEVSYTDTKVIGNGSFGVVYQAKLCDSGELVAIKKVLQDKRFKNRELQIMRKLDHCNIVRLRYFFYSSGEKKDEVYLNLVLDYVPETVYRVARHYSRAKQTLPVIYVKLYMYQLFRSLAYIHSFGICHRDIKPQNLLLDPDTAVLKLCDFGSAKQLVRGEPNVSYICSRYYRAPELIFGATDYTSSIDVWSAGCVLAELLLGQPIFPGDSGVDQLVEIIKVLGTPTREQIREMNPNYTEFKFPQIKAHPWTKVFRPRTPPEAIALCSRLLEYTPTARLTPLEACAHSFFDELRDPNVKLPNGRDTPALFNFTTQELSSNPPLATILIPPHARIQAAASTPTNATAASDANTGDRGQTNNAASASASNST
2 |  | 120 | transitional endoplasmic reticulum ATPase (TERA known as VCP) (enzyme, Identified by LC-MS/MS in the LMBR1L co-IP; also called VCP (TERA)) not shown

From patent US20210269519A1 (University of Texas, published 2021)
